Experimental findings from US20080255134A1 (Artesian Therapeutics, Inc., priority 2004, published 2008) are described below.

The target of the assay is beta-receptors from rat cortical membranes. Description: Non-specific β-receptor radioligand binding, [3H]DHA. The following applies: read-out: Non-selective β-adrenergic IC50.

Structures are written as SMILES.

As for `CC(C)NCC(O)COc1ccc(CC(N)=O)cc1` (stereo not shown) [Atenolol, reference compound], the IC50 worked out at 1820 nM.
